The numbers were not newly measured in US11377636B2, “Endogenous retrovirus transcription as a marker for primate naive pluripotent stem cells” (Max-Delbrück-Centrum für Molekulare Medizin in der …, priority 2014, dated 2022), which cites them from elsewhere.

Protein sequences, listed by entry. Tags and fused reporters are not part of them.
UniProt P06239, whole entry, species assumed: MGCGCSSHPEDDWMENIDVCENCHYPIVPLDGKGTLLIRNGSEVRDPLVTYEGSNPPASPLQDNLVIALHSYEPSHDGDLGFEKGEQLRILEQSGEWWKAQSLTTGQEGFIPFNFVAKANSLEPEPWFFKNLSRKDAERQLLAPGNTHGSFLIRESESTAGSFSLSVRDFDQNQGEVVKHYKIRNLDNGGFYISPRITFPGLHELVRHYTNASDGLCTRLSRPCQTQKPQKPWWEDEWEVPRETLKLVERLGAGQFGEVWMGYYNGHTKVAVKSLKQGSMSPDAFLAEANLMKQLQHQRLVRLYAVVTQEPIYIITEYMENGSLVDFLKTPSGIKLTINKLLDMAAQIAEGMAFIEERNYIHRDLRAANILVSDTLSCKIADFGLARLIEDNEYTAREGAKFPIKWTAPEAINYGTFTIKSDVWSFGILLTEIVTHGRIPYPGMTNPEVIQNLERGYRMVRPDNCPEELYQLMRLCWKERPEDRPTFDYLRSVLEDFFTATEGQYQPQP
UniProt Q16539, whole entry: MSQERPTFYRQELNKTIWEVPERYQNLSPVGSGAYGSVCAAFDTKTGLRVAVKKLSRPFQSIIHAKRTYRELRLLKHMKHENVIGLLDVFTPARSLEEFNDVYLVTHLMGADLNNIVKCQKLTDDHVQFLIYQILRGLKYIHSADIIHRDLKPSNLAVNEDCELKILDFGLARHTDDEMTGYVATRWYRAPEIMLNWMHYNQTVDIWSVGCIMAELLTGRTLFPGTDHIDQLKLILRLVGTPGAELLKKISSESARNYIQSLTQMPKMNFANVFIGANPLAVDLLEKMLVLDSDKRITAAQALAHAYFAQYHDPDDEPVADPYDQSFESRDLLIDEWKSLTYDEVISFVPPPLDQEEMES

One series addresses Lck (Homo sapiens, UniProt P06239).
Another series has as its target p38α (Homo sapiens, UniProt Q16539).

WH-4-023: the half-inhibitory concentration (IC50) on Lck was 2 nM. Further, at p38α, the “inhibition on p38α” value is “little inhibition”.

A word on the IC50: it is the concentration that gives 50% inhibition.
